Reference: ChEMBL document CHEMBL3608232, “Exploring the Existing Drug Space for Novel pTyr Mimetic and SHP2 Inhibitors” (ACS Med Chem Lett, 2015)
pIC50: −log10 of the molar value.

Chains of the proteins cited; added tags and fusions are not shown. Lines headed by an entry give the natural chain unless they say otherwise; changes in a name come on top.
UniProt P23467: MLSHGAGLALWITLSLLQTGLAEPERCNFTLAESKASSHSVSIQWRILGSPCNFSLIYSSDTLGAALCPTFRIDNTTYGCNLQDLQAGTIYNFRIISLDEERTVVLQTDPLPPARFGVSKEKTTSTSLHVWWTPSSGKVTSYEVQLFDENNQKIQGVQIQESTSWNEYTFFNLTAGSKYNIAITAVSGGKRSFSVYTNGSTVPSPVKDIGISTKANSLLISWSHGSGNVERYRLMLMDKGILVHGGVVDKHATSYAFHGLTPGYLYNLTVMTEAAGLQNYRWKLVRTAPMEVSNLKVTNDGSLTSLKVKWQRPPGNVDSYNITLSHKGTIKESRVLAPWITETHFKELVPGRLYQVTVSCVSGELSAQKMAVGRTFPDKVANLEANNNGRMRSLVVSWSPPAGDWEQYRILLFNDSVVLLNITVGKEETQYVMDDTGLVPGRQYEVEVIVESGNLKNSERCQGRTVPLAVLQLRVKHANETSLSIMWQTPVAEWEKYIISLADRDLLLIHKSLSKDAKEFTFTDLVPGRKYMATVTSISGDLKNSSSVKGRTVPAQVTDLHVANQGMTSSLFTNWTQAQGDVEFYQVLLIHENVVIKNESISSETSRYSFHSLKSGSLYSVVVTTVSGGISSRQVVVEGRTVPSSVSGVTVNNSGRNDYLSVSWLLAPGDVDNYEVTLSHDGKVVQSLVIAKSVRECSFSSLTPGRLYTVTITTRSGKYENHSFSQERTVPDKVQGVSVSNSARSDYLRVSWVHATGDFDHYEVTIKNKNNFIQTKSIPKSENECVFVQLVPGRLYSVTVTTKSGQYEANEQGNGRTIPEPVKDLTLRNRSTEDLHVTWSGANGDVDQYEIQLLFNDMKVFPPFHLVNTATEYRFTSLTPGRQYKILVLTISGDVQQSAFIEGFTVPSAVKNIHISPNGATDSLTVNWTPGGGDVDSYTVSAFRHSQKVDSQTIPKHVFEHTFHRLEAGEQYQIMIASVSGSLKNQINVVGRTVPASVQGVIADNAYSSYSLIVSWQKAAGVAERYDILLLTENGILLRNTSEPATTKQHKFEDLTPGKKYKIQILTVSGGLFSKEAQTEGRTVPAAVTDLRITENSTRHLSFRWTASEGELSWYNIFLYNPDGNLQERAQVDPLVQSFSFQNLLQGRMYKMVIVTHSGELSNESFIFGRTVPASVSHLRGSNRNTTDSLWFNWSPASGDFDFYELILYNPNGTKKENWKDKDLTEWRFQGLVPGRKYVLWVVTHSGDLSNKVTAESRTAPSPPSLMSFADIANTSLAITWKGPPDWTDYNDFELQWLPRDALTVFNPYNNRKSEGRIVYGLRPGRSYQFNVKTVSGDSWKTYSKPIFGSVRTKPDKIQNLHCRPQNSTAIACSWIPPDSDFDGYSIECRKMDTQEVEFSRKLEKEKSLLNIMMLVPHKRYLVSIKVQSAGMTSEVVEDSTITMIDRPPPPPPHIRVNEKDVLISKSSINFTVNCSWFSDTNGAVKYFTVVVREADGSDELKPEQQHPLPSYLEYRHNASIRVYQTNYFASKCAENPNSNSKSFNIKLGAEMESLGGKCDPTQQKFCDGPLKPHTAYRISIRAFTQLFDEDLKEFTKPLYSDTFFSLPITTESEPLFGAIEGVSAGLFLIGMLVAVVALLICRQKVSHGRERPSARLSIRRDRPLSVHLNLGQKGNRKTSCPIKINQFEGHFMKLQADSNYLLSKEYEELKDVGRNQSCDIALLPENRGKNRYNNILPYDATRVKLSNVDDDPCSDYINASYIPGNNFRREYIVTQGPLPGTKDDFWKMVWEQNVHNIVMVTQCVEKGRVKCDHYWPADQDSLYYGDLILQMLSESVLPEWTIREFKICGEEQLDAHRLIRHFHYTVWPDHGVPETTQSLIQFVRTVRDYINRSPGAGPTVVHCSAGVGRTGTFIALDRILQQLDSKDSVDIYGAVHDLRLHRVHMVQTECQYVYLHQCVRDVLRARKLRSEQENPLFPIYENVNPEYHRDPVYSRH
UniProt P28827, whole entry: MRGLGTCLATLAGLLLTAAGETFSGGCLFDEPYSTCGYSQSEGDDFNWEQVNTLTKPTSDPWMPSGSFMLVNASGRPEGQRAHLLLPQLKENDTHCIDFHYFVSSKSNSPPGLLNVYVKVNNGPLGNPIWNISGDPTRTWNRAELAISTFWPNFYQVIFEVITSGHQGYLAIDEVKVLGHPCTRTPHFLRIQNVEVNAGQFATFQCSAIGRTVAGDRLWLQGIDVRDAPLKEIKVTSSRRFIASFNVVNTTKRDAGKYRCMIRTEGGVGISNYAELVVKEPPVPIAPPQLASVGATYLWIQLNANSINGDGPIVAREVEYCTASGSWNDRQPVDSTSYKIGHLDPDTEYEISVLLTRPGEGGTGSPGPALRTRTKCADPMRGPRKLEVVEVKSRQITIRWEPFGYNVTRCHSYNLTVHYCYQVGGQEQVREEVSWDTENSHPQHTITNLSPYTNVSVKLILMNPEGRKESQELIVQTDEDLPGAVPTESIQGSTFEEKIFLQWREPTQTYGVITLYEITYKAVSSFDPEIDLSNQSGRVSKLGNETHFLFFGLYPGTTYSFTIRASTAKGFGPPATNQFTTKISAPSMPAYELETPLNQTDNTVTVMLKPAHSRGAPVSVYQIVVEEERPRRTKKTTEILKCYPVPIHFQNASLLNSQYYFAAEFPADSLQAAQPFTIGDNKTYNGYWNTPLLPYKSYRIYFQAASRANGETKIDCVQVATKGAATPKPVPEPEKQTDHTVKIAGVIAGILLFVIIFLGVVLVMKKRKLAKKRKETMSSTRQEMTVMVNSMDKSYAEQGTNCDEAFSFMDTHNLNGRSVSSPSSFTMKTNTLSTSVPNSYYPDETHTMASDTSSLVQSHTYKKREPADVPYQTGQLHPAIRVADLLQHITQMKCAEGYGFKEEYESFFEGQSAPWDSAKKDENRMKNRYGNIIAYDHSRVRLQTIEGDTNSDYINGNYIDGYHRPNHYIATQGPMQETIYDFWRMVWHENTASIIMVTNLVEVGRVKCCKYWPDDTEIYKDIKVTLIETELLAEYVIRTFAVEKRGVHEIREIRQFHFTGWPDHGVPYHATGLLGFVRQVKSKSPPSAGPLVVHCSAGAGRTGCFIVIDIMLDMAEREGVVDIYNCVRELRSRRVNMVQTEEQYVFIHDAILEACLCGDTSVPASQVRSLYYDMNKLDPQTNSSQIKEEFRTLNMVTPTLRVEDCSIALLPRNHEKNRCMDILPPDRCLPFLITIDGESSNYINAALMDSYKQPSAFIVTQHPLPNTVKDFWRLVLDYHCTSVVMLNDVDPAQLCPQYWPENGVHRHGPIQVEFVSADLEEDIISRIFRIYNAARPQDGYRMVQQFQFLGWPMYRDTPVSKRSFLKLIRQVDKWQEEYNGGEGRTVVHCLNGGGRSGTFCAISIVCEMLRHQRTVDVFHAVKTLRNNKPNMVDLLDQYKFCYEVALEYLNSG
UniProt P10586, whole entry: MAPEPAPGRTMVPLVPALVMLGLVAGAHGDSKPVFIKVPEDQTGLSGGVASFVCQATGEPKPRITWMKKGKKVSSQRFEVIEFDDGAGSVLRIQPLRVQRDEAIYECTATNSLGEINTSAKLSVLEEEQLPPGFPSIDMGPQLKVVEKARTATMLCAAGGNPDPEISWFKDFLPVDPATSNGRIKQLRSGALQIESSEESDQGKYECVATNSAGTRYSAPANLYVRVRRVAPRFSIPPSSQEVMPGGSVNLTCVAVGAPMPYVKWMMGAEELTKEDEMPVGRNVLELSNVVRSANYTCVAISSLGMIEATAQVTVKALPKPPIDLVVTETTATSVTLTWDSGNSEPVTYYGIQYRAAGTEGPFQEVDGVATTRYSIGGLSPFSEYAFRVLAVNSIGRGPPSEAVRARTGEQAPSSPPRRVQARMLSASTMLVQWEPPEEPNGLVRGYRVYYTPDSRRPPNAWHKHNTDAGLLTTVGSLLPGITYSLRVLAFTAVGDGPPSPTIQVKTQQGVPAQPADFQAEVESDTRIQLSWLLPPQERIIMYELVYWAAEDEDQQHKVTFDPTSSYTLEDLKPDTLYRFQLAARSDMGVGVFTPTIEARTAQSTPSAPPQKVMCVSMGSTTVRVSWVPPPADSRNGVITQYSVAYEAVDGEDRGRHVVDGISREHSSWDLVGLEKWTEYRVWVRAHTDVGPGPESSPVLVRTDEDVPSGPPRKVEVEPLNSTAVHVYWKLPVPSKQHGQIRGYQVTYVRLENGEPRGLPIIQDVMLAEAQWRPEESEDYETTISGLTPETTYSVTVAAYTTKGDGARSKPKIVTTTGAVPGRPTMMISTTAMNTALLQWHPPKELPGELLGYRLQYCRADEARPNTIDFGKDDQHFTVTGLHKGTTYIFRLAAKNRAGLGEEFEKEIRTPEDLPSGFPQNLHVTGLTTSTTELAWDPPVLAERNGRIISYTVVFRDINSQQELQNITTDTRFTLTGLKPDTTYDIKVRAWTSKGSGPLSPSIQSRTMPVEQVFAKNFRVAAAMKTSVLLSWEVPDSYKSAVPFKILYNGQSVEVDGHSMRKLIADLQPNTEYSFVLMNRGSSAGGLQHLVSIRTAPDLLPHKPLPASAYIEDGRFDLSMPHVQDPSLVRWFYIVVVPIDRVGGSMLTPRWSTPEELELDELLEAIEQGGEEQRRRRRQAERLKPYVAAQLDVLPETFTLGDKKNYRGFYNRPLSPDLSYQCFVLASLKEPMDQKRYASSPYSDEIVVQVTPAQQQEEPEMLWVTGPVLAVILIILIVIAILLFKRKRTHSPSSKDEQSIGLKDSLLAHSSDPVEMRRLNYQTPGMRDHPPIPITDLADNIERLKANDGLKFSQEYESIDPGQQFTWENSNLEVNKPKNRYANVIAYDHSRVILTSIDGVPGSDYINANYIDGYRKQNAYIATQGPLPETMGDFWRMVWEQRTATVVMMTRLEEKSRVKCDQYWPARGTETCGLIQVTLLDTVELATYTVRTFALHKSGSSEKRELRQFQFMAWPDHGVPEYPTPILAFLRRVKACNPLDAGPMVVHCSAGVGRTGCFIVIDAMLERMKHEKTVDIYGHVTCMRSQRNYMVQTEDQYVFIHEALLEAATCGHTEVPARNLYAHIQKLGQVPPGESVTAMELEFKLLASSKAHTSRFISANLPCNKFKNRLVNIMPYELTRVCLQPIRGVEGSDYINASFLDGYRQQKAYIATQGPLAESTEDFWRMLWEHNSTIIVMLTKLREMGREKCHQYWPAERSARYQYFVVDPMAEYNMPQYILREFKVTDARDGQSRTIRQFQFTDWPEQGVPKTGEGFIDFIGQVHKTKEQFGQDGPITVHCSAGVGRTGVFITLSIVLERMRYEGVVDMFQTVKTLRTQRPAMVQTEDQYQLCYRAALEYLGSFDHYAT

Experiments:
[1] = molecular target: T1, Tyrosine-protein phosphatase non-receptor type 7 (Homo sapiens, UniProt P35236); assay: Inhibition of phosphatase activity of human HePTP using pNPP as a substrate after 10 mins by spectrophotometer analysis
T1 sequence (P35236 whole entry): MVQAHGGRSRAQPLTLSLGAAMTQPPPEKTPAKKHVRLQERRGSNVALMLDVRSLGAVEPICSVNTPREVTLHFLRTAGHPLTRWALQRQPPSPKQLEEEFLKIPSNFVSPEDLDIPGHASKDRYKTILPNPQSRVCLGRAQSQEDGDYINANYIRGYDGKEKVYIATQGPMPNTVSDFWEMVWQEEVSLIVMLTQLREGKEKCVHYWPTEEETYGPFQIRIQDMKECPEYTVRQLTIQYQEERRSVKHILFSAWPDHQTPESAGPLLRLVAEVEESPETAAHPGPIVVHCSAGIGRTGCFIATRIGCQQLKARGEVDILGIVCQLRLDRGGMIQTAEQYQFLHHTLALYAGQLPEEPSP

[2] = molecular target: Receptor-type tyrosine-protein phosphatase beta (Homo sapiens, UniProt P23467); assay: Inhibition of phosphatase activity of human PTPbeta using pNPP as a substrate after 10 mins by spectrophotometer analysis
[3] = molecular target: Receptor-type tyrosine-protein phosphatase mu (Homo sapiens, UniProt P28827); assay: Inhibition of phosphatase activity of human PTPmu using pNPP as a substrate after 10 mins by spectrophotometer analysis
[4] = molecular target: Receptor-type tyrosine-protein phosphatase F (Homo sapiens, UniProt P10586); assay: Inhibition of phosphatase activity of human LAR using pNPP as a substrate after 10 mins by spectrophotometer analysis
[5] = molecular target: T2, Low molecular weight phosphotyrosine protein phosphatase (Homo sapiens, UniProt P24666); assay: Inhibition of phosphatase activity of human LMWPTP using pNPP as a substrate after 10 mins by spectrophotometer analysis
T2 sequence (P24666 whole entry): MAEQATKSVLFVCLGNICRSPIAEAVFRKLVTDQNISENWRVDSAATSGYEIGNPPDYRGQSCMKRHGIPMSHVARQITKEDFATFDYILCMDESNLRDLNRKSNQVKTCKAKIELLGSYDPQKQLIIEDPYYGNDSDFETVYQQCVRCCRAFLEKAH

[6] = molecular target: T3, Serine/threonine-protein phosphatase 5 (Homo sapiens, UniProt P53041); assay: Inhibition of phosphatase activity of human PP5 using pNPP as a substrate after 10 mins by spectrophotometer analysis
T3 sequence (P53041 whole entry): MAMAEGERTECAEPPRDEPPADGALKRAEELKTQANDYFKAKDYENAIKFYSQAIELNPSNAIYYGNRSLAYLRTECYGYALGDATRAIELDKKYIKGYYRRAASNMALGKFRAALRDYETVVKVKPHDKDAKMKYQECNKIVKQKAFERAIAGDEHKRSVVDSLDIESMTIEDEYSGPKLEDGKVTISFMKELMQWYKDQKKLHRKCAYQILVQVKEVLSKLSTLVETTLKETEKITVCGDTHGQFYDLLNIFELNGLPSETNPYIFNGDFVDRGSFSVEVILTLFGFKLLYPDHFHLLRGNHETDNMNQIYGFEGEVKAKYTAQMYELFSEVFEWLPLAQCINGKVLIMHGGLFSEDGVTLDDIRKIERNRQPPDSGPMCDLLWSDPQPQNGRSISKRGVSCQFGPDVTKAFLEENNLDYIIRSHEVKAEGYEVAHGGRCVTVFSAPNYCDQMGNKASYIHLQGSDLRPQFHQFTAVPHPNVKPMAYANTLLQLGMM

Measured: pIC50

CC(C)c1ccc(NC(=O)C(=O)Nc2ccc(NC(=O)C(c3ccccc3)S(=O)(=O)O)cc2)cc1 (stereo unspecified)
< 4.30: all assays above
